Assay results: US20250319108A1, “COMBINATIONS” (AN2 Therapeutics, Inc., priority 2021, published 2025)

Assays:
Experiment in all cases: Checkerboard synergy testing with EBO
Format in all cases: cell-based
Settings in all cases: in combination with EBO, 7H9+5% OADC
[1] = tested on: M. peregrinum ATCC 700686
[2] = tested on: M. avium 2285R
[3] = tested on: M. chimaera 20-S-05
[4] = tested on: M. abscessus ATCC 19977
[5] = tested on: M. intracellulare 20-S-13
[6] = tested on: M. intracellulare DNA000111
[7] = tested on: M. avium ATCC 700898

| SMILES | Summary Activity of EBO Drug Combinations (FIC index class) [1] | Summary Activity of EBO Drug Combinations (FIC index class) [2] | Summary Activity of EBO Drug Combinations (FIC index class) [3] | Summary Activity of EBO Drug Combinations (FIC index class) [4] | Summary Activity of EBO Drug Combinations (FIC index class) [5] | Summary Activity of EBO Drug Combinations (FIC index class) [6] | Summary Activity of EBO Drug Combinations (FIC index class) [7] |
| --- | --- | --- | --- | --- | --- | --- | --- |
| NCC[C@H](O)C(=O)N[C@@H]1C[C@H](N)[C@@H](O[C@H]2O[C@H](CN)[C@@H](O)[C@H](O)[C@H]2O)[C@H](O)[C@H]1O[C@H]1O[C@H](CO)[C@@H](O)[C@H](N)[C@H]1O [AMK, Amikacin] | A (A = Additive) | I (I = Indifferent) | I (I = Indifferent) | I (I = Indifferent) | I (I = Indifferent) | I (I = Indifferent) | I (I = Indifferent) |
| CC[C@H]1OC(=O)[C@H](C)[C@@H](O[C@H]2C[C@@](C)(OC)[C@@H](O)[C@H](C)O2)[C@H](C)[C@@H](O[C@@H]2O[C@H](C)C[C@H](N(C)C)[C@H]2O)[C@](C)(OC)C[C@@H](C)C(=O)[C@H](C)[C@@H](O)[C@]1(C)O [CLR, Clarithromycin] | I (I = Indifferent) | A (A = Additive) | I (I = Indifferent) | I (I = Indifferent) | – | I (I = Indifferent) | I (I = Indifferent) |
